Test results from patent publication US6949584B2, “TNP-470 species, polymer conjugates and use thereof” (Children's Medical Center Corporation, priority 2002, dated 2005).

How the values were obtained:
A2058 human melanoma = experiment: Antitumor activity, SCID mice bearing s.c. A2058 human melanoma; format: in vivo; conditions: during the A2058 study
Excerpt: Each group consisted of 5 mice. […] 500 mm^3.

LLC = experiment: Antitumor activity, C57BL/6J mice bearing s.c. LLC
Excerpt: Male C57BL/6J mice (˜8 weeks, ˜20 g) were inoculated with 5×10^6 viable LLC or A2058 melanoma cells s.c. The tumors were allowed to grow to a volume of approximately 100 mm^3. […] Each group consisted of 5 mice. Mice were euthanized when tumors reached or surpassed a size equivalent to 30% of their body weight. Animals were weighed daily and observed for signs of tumor progression and euthanized if their body weight decreased below 80% of their starting weight. Animals were monitored for general health, weight loss, and tumor progression. At termination, mice underwent post-mortem examination and tumors were dissected and weighed. […] The same dosing schedule was repeated with white SCID male mice (˜8 weeks, 20 g) inoculated with 5×10^6 viable A2058 human melanoma cells s.c. and treated as described above.

[1] = phosphate buffered saline or citrate buffer, pH 5.5, 0.2 M at 37° C., no enzyme
Early mouse development = conditions: injected into 7 and 17 day-old mice
[2] = Rotorod test and body weight, 5 weeks treatment; conditions: 30 mg/kg q.o.d. s.c. for 5 weeks
[3] = cited from earlier work

## HPMA copolymer-Gly-Phe-Leu-Gly (SEQ ID NO: 1)-ethylenediamine-TNP-470 [HPMA copolymer-TNP-470]
A2058 human melanoma
  deaths due to toxicity and weight loss: neither deaths due to toxicity nor weight loss
LLC; 30 mg/kg q.o.d.
  weight loss: did not induce weight loss
LLC; 90 mg/kg/q.o.d.
  animal weight loss: no animal weight loss
[1]
  stability of the conjugate: stable for three days
estimated
  half-life in circulating serum: up to 24 hours
Mice injected with the conjugate
  time post injection that TNP-470 active species were present in sera and tumors: up to 48 h
Early mouse development; listed as Conjugated TNP-470
  effect on normal development (weight gain) of newborn mice: did not affect body weight
Early mouse development; listed as HPMA copolymer-TNP-470 conjugate
  effect on normal development (weight gain) of newborn mice: developed similarly to the control group
[2]
  body weight: gained weight similar to control mice
  time remaining on the rotating rod: indistinguishable from that of control mice

## HPMA copolymer-doxorubicin [PK1]
[3]; clinical pharmacokinetics
  t1/2a: 1.8 h
[3]; in animals and in humans
  time to low blood levels (renal elimination): 1 to 5 h
[3]; phase I
  maximum tolerated dose: 320 mg/m^2
